Laboratory results as given in patent publication US12570711B2, “Platforms for co-stimulation, novel car designs and other enhancements for adoptive cellular therapy” (Angeles Therapeutics, Inc., priority 2017, dated 2026).

How the values were obtained:
CD19 = target: T1, CD19 (Homo sapiens, UniProt P15391); assay: CAR-T cell in vitro and in vivo assay panel (IL2 production, proliferation, exhaustion, in vivo expansion, anti-tumor activity); set-up: endogenous in cells; host or cells: RAJI cells in vitro; Nalm-6-Luc cells xenografted in NSG mice
T1 sequence (P15391 20-556): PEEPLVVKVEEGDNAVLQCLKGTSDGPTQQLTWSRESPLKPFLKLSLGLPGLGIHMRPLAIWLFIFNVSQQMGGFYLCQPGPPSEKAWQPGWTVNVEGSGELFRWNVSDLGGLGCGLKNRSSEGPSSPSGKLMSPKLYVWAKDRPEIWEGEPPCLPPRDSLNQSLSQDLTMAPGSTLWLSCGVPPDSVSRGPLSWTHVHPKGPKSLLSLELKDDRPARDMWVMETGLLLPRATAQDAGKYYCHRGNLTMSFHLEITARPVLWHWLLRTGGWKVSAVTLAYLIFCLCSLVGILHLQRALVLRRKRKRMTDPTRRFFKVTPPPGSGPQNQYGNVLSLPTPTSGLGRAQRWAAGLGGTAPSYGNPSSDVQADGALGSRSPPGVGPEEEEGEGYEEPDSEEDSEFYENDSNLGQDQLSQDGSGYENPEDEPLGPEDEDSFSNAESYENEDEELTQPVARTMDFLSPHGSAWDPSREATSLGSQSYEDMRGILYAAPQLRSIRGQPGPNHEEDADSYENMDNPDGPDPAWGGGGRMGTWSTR

BM-derived DCs = assay: IL-12p70 and TNF-α ELISA of dendritic cell culture supernatants; type: cell-based, mouse; conditions: culture of transduced DCs
Experimental: ELISA. Culture supernatants are harvested from DCs plated at 5×10^5 cells per well (in 1.5 ml). IL-12p70 and tumor necrosis factor alpha (TNF-α) are detected by sandwich enzyme-linked immunosorbent assay (ELISA), using kits from eBioscience according to the manufacturer's guidelines.
After transduction of BM-derived DCs with human NEMO-K277A-, human NEMO-K277A-deltaV249-K255-, mouse NEMO-K270A- and IKK2-S177E-S181E, maturation markers on the transduced or nontransduced cells are analyzed.

NF-κB [1] = assay: p65 nuclear translocation, nuclear NF-κB and AP1 binding activity in transduced bone marrow-derived dendritic cells; type: cell-based, mouse; conditions: for p65 (RelA) localisation in DCs: level similar to LPS-treated DCs, not in untreated or control vector DCs
Experimental: Transduction of DCs and flow cytometry. Murine bone marrow-derived Dendritic cells (DCs) are prepared as previously described. Immature DCs are transduced on day 4 at an MOT of 20 with lentiviral vectors as described (Rowe H M et al, Molecular Therapy, 13, 2, 2006) and fed every 4 days with fresh medium containing granulocyte-macrophage colony-stimulating factor (50 ng/ml; from Peprotech). On day 5 posttransduction, DCs are harvested, washed, and blocked for Fc receptors before surface staining for maturation markers with the following biotin-conjugated Abs: anti-CD11c, anti-CD86, and anti-I-Ab (MHC class II) (all from BD Pharmingen); anti-CD40 (from Serotec); and anti-CD80, anti-ICAM-1, and anti-Kb (MHC class I) (all from eBioscience). A hamster isotype control Ab (biotin conjugated) is purchased from BD Pharmingen. Abs are then labeled with streptavidin RPE Cy-5 2o reagent (DakoCytomation) before flow cytometry. Lipopolysaccharide (LPS) (50 ng/ml) (Sigma) is added to untransduced DCs and left overnight as a positive control for maturation. Zymosan A (10 μg/ml) treatment (for 30 min at 37° C.) is used as a control for ERK activation.
Mouse BM-derived Dendritic cells (DCs) are infected with the lentivectors encoding human NEMO-K277A, human NEMO-K277A-deltaV249-K255, mouse NEMO-K270A and IKK2-S177E-S181E either alone or in combination with Ii-OVA.

NF-κB [2] = assay: Doxycycline-inducible expression (pSLIK-Tet-On) in T cells, NF-κB activity by Phospho-IκBα antibody and flow cytometry; type: cell-based; conditions: pSLIK-Tet-On vector in T cells
Experimental: The expression of these costimulatory proteins can be controlled by expressing them using inducible promoters known in the art, such as Tet-inducible promoter or RheoGene system. In an embodiment, hNEMO-K277A mutant and hNEMO-K277A-DeltaV249-K255 are cloned in the pSLIK-Tet-On vector (Gopalakrishnan et al, Clinical Cancer Res; 19(18), 2013) and the resulting virus is used to infect T cells. […] NF-κB activity is measured by AlexaFlour-conjugated Phospho-IκBα antibody and flow cytometry.

Nalm-6-Luc cells = assay: NSG mice xenografted with Nalm-6-Luc cells treated with CAR/SIR-T cells; type: in vivo, mouse; conditions: compared to 2nd generation CAR construct containing the 41BB costimulatory domain
Experimental: After 10 days of expansion, the CAR/SIR-T cells are used for in vivo experiment. For this purpose, NSG mice are injected with 10^6 Nalm-6-Luc cells via tail vein injection. Two days later, 3×10^6 CAR/SIR-T cells injected. Mice are imaged weekly by bioluminescence imaging following administration of D-Luciferin and followed for survival.
In addition, T cells expressing the first generation CARs along with hNEMO-K277A (SEQ ID NO: 1594-1604) show less signs of exhaustion as measured by cell proliferation, cytokine (IL2, IFNγ, TNFα) production, expression of exhaustion markers (e.g., PD1) and cytotoxicity (Matador cytotoxicity assay) when cocultured with RAJI cells over 3 weeks period as compared to T cells expressing 2nd generation CARs (SEQ ID NO: 1594-1604) with a BBz costimulatory domain. […] The T cells expressing the first generation CARs along with hNEMO-K277A (Backbone 2; SEQ ID NO: 1594-1604) in general show weaker production of cytokines (e.g., IL2, IFNγ and TNFα) when exposed to RAM cells as compared to T cells expressing first generation CARs and coexpressing vFLIP K13 (i.e., Backbone 1; SEQ ID NO: 1016-1029).

Molecule | activity of T cells with K277A mutation induced in the endogenous NEMO gene (CD19; gene editing, compared to control T cells lacking the mutation) | in vitro and in vivo performance of CAR-T cells, module on a separate lentiviral vector (CD19; two lentiviral vectors, MOI 5, CAR:hNEMO-K277A 1:1 to 1:10) | secretion of IL-12p70 and TNF-α (BM-derived DCs) | activation of the MAPK pathway (nuclear AP1 binding activity) (NF-κB [1]) | nuclear NF-κB binding activity in transduced DCs (NF-κB [1]) | p65 (RelA) localisation in DCs (NF-κB [1]) | expression and NF-κB activity on doxycycline treatment (NF-κB [2]) | in vivo efficacy of CD19-CAR constructs lacking any costimulatory domain (Nalm-6-Luc cells) | cytokine production, proliferation, in vivo expansion and anti-tumor activity of CAR-T cells (CD19)
hNEMO-K277A: human NEMO mutant K277A, constitutively active selective NF-κB activator used as accessory module | enhanced proliferation, cytokine production, expansion, long term persistence in vivo and anti-tumor activity | improve the in vitro and in vivo performance of CAR-T cells | upregulated | no affect on the activation of the MAPK pathway | Increased nuclear NF-κB binding activity | nuclear translocation of p65 (RelA) | induce hNEMO-K277A and hNEMO-K277A-DeltaV249-K255 expression and NF-κB activity | superior in vivo efficacy | –
hNEMO-K277A-DeltaV249-K255: mutant lacking aminoacid residues V249-K255 of human NEMO and carrying the K277A mutation (protein) MNRHLWKSQLCEMVQPSGGPAADQDVLGEESPLGKPAMLHLPSEQGAPETLQRCLEENQELRDAIRQSNQILRERCEELLHFQASQREEKEFLMCKFQEARKLVERLGLEKLDLKRQKEQALREVEHLKRCQQQMAEDKASVKAQVTSLLGELQESQSRLEAATKECQALEGRARAASEQARQLESEREALQQQHSVQVDQLRMQGQSVEAALRMERQAASEEKRKLAQLQVAYHQLFQEYDNHIKSSRGMQLEDLKQQLQQAEEALVAAQEVIDKLKEEAEQHKIVMETVPVLKAQADIYKADFQAERQAREKLAEKKELLQEQLEQLQREYSKLKASCQESARIEDMRKRHVEVSQAPLPPAPAYLSSPLALPSQRRSPPEEPPDFCCPKCQYQAPDMDTLQIHVMECIE | – | – | upregulated | no affect on the activation of the MAPK pathway | Increased nuclear NF-κB binding activity | nuclear translocation of p65 (RelA) | induce hNEMO-K277A and hNEMO-K277A-DeltaV249-K255 expression and NF-κB activity | superior in vivo efficacy | increased cytokine production, proliferation, in vivo expansion and anti-tumor activity
